System: amastigote forms of L. (L.) infantum
Experiment: In vitro leishmanicidal activity against intracellular amastigote forms in peritoneal murine macrophages (Giemsa, parasite load)
Assay type: cell-based, Leishmania (Leishmania) infantum
Conditions: CC50/IC50, intracellular amastigotes vs peritoneal murine macrophages
Procedure: L. (L.) amazonensis (IFLA/BR/67/PH8.) was maintained as promastigote forms in Roswell Park Memorial Institute medium (RPMI 1640 medium) (Gibco, Grand Island, NY, USA), supplemented with antibiotics (penicillin 10.000 UI/mL and streptomycin […]) (Cultilab, Campinas, BR), and 10% bovine fetal serum (FBS) (Cultilab), at 25°C. L. (L.) infantum (MHOM/BR/1972/LD) was maintained as promastigote forms in M199 medium (Gibco), supplemented with 10% FBS (Cultilab), antibiotics (Cultilab), 5% human urine and 0.25% hemin (Sigma-Aldrich) at 25°C, and amastigote forms were obtained from the spleen of golden hamsters after 60 to 70 days of infection ([21]). Peritoneal murine macrophages were obtained by washing the peritoneal cavity of BALB/c mice with RPMI 1640 medium (Gibco) after 72 h of the application of 5 mL of the sodium thioglycolate (Sigma-Aldrich) at 3%, and then were cultivated in RPMI 1640 medium (Gibco) supplemented with antibiotics and 10% FBS (Gibco), at 37°C in a 5% CO2 humidified incubator.
Initially, a screening was performed against promastigote forms of L. (L.) amanzonensis. […] The slides were stained with Giemsa (Synth, Diadema, BR), analyzed using an optical microscopy (Nikon), and the parasite load was defined by the number of infected macrophages X number of intracellular amastigotes/number of total macrophages ([23]). […]

`C=CC(C)(C)c1cc(/C=C/C(=O)c2ccc(O)cc2)c(OC)cc1O` [LicoA (1), Licochalcone A] was tested, and the “selectivity index (SI) to L. (L) infantum” value was 4.16.

From PMC7758436, “Licochalcone a Exhibits Leishmanicidal Activity in vitro and in Experimental Model of Leishmania (Leishmania) Infantum” (Frontiers in Veterinary Science, 2020)
